This passage reports EC50 results from patent US20220332824A1 (published 2022).

Sequences of proteins named here, by UniProt entry; tags and fusion partners are left off. Residues count along the entry.
UniProt Q08722, 19-323: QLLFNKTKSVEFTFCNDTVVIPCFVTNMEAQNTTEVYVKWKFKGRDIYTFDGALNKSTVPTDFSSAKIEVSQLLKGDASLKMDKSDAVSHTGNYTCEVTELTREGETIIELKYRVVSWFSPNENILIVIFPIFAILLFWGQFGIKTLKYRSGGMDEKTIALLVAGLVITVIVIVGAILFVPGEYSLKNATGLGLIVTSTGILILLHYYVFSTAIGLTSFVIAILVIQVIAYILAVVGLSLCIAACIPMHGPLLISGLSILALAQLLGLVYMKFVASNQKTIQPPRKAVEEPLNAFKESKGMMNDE

The labels stand for the following.
B1: bispecific antibody PD1b-E-LC (bispecific antibody)
heavy: not shown
light: EIVLTQSPATLSLSPGERATLSCRASENVGTYISWYQQKPGQAPRLLIYGASNRYTGIPARFSGSGSGTDFTLTISSLEPEDFAVYYCGESYGHLYTFGGGTKVEIKRTVAAPSVFIFPPSDEQLKSGTASVVCLLNNFYPREAKVQWKVDNALQSGNSQESVTEQDSKDSTYSLSSTLTLSKADYEKHKVYACEVTHQGLSSPVTKSFNRGECEPKSSDKTHTSPPSPEVQLVESGGGLVQPGGSLRLSCAVSGNIYNRNFMGWFRQAPGKGLEGVSAIYTGTSRTYYADSVKGRFTISRDNSKNTVYLQMNSLRAEDTAVYYCAADLREGFWDTGVWNTWGQGTLVTVSS
B2: bispecific antibody PD1a-E-LC (bispecific antibody)
heavy: not shown
light: B1 light with L274R, S304A, A317P, E331D
B3: bispecific antibody PD1a-E-LN (bispecific antibody)
heavy: not shown
light: EVQLVESGGGLVQPGGSLRLSCAVSGNIYNRNFMGWFRQAPGKGREGVSAIYTGTSRTYYADSVKGRFTISRDNAKNTVYLQMNSLRPEDTAVYYCAADLRDGFWDTGVWNTWGQGTLVTVSSEPKSSDKTHTSPPSPEIVLTQSPATLSLSPGERATLSCRASENVGTYISWYQQKPGQAPRLLIYGASNRYTGIPARFSGSGSGTDFTLTISSLEPEDFAVYYCGESYGHLYTFGGGTKVEIKRTVAAPSVFIFPPSDEQLKSGTASVVCLLNNFYPREAKVQWKVDNALQSGNSQESVTEQDSKDSTYSLSSTLTLSKADYEKHKVYACEVTHQGLSSPVTKSFNRGEC
B4: bispecific antibody PD1b-E-LN (bispecific antibody)
heavy: not shown
light: B3 light with R45L, A75S, P88A, D102E

Usually EC50 stands for the concentration that produces a half-maximal response. The low end stands for a more potent agent, the high end for a less potent agent.

Residue numbers refer to the chain shown, from its start.

The assay addresses CD47 (UniProt Q08722 19-323). The assay can be described thus: FACS. A general note: Flow cytometry measures light scatter and fluorescence of single cells or particles in a stream.
Take B1: the response was half-maximal at 0.54 nM (EC50).

For B2, the EC50 amounted to 0.984 nM.

Molecule B3 yielded an EC50 of 1.62 nM.

As for B4, the midpoint of the response, the EC50, lay at 3.12 nM.
